Experimental data: patent publication US5747503A, “Selective inhibitors of biogenic amine transporters” (priority 1996, dated 1998)

Chains of the proteins cited; added tags and fusions are not shown.
UniProt P23977, whole entry: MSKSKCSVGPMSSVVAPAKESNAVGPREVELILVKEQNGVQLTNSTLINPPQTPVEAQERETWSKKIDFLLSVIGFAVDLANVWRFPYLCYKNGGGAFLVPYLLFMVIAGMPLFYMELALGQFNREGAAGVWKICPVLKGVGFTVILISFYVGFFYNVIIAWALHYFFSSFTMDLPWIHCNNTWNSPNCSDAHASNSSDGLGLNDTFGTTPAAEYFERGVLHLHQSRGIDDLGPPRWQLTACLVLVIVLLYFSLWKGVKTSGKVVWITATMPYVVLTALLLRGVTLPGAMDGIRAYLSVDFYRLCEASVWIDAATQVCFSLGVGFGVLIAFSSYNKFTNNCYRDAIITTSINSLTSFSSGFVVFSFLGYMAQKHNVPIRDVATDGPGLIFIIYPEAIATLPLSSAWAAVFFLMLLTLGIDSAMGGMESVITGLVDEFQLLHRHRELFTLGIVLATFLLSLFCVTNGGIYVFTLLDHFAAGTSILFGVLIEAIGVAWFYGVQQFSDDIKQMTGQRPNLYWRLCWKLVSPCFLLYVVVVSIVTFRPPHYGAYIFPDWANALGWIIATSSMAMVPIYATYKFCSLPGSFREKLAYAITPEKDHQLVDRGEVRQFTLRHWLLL

Target: T1, DA transporter (Rattus norvegicus, UniProt P23977)
T1 construct: Striata were dissected using glass manipulators; from tissue; host or cells: striatum of male Sprague-Dawley rats, membranes
Test: [^3 H]CFT binding to DA transporter
Details: Table 2; nM ± SD; rat striatum
Experimental: For [^3 H]J2B-carbomethoxy-3B-(4-fluorophenyl)-tropane (CFT, WIN35,428) binding assays, male Sprague-Dawley rats (200 to 300 gm) were anesthetized with C02 gas, and decapitated. Striata were dissected using glass manipulators, placed in small plastic containers, and then allowed to freeze by placing the container in dry ice.
Striata collected in this way were stored at […]. On the day of the assay, each striatum was placed in ice-cold binding buffer (BB: 55.2 mM sodium phosphate buffer, pH 7.4, 5 ml per caudate), and homogenized while still frozen with a Polytron. The homogenate was centrifuged for 10 min at 30,000×g, and the pellet was resuspended in an equal volume of BB. The homogenate was recentrifuged, and the pellet was resuspended in an equal volume of BB. An aliquot was saved for determination of protein (0.5 ml), and the remaining homogenate was brought up to a final volume of 22 ml/striatum using ice-cold BB. Typical final protein concentrations, determined with the Lowry method (Lowry, O. H., et al. J. Biol. Chem. 193: 265-275 (1951)), were 100 μg/ml. […] Aliquots of membranes were then used in the radioligand binding assays.
The [^3 H]nisoxetine assay for the norepinephrine transporter (NE) was carried out as described (Rothman, et al. (1993), supra; Tejani-Butt, S. M., et al. Eur. J. Pharmacol. 191:239-243 (1990)). […]

SMILES: CNC1CC(c2ccc(Cl)c(Cl)c2)c2ccccc21 (stereo not shown) [Indatraline]
- IC50: 4.32 ± 0.46 nM
